Data taken from patent US6964857B2, “Measuring indigenous photosynthetic organisms to detect chemical warefare agents in water” (dated 2005).

Tested on: naturally occurring algae in the river water
Assay: Fluorescence induction curves of naturally occurring algae in Clinch River water (Walz XE-PAM fluorometer)
[1] = Clinch River water, final concentration 10 μM, 6-minute exposure (FIG. 3)

Structure (SMILES)	change in the initial fluorescence (Fo) and maximum fluorescence (Fmax) (Clinch River water as is, final concentration 18 μg/mL, 10-second actinic light pulse, vs control curve (FIG. 1))	fluorescence of water sample [1]	kinetic time course of fluorescence induction curve [1]
COP(=S)(OC)Oc1ccc([N+](=O)[O-])cc1	clear change		
CN(C)C(=O)Nc1ccc(Cl)c(Cl)c1		increased considerably	dramatic change
